In PubChem BioAssay (NCI):
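Test compounds were applied to cells in 96-well plates for 48 hours at 5 doses. Definition used: TGI = concentration required for complete inhibition of growth.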

Tests used:
Assay in all cases: NCI-60 cell line screen, 48 h
786-0 renal = test system: 786-0 renal
A498 renal = test system: A498 renal
A549 NSCLC = test system: A549 NSCLC
ACHN renal = test system: ACHN renal
BT-549 breast = test system: BT-549 breast
CAKI-1 renal = test system: CAKI-1 renal
CCRF-CEM leukemia = test system: CCRF-CEM leukemia
COLO 205 colon = test system: COLO 205 colon
DU-145 prostate = test system: DU-145 prostate
EKVX NSCLC = test system: EKVX NSCLC
HCT-116 colon = test system: HCT-116 colon
HCT-15 colon = test system: HCT-15 colon
HL-60(TB) leukemia = test system: HL-60(TB) leukemia
HOP-62 NSCLC = test system: HOP-62 NSCLC
HOP-92 NSCLC = test system: HOP-92 NSCLC
HS 578T breast = test system: HS 578T breast
HT29 colon = test system: HT29 colon
IGROV1 ovarian = test system: IGROV1 ovarian
K-562 leukemia = test system: K-562 leukemia
KM12 colon = test system: KM12 colon
LOX IMVI melanoma = test system: LOX IMVI melanoma
M14 melanoma = test system: M14 melanoma
MALME-3M melanoma = test system: MALME-3M melanoma
MCF7 breast = test system: MCF7 breast
MDA-MB-231 breast = test system: MDA-MB-231 breast
MDA-MB-435 = test system: MDA-MB-435
MOLT-4 leukemia = test system: MOLT-4 leukemia
NCI-H226 lung = test system: NCI-H226 lung
NCI-H23 lung = test system: NCI-H23 lung
NCI-H522 lung = test system: NCI-H522 lung
NCI/ADR-RES ovarian = test system: NCI/ADR-RES ovarian
OVCAR-3 ovarian = test system: OVCAR-3 ovarian
OVCAR-4 ovarian = test system: OVCAR-4 ovarian
OVCAR-5 ovarian = test system: OVCAR-5 ovarian
OVCAR-8 ovarian = test system: OVCAR-8 ovarian
PC-3 prostate = test system: PC-3 prostate
RPMI-8226 leukemia = test system: RPMI-8226 leukemia
SF-268 CNS = test system: SF-268 CNS
SF-295 CNS = test system: SF-295 CNS
SF-539 CNS = test system: SF-539 CNS
SK-MEL-2 melanoma = test system: SK-MEL-2 melanoma
SK-MEL-28 melanoma = test system: SK-MEL-28 melanoma
SK-MEL-5 melanoma = test system: SK-MEL-5 melanoma
SK-OV-3 ovarian = test system: SK-OV-3 ovarian
SN12C renal = test system: SN12C renal
SNB-19 CNS = test system: SNB-19 CNS
SR leukemia = test system: SR leukemia
SW-620 colon = test system: SW-620 colon
T-47D breast = test system: T-47D breast
TK-10 renal = test system: TK-10 renal
U251 CNS = test system: U251 CNS
UACC-257 melanoma = test system: UACC-257 melanoma
UACC-62 melanoma = test system: UACC-62 melanoma
UO-31 renal = test system: UO-31 renal

Measured: TGI

CCCC(C)(O)C1CC23C=CC1(OC)[C@@H]1Oc4c(OC)ccc5c4[C@@]12CCN(C)[C@@H]3C5 (some centres undefined)
> 100 µM: all assays above
